Laboratory results: ChEMBL document CHEMBL1134931, “Aminoalkoxybiphenylnitriles as histamine-3 receptor ligands” (Bioorg Med Chem Lett, 2002)

Amino acid sequences for entries named in this document (tags omitted). A change or cut given only in a name is not applied to a line headed by its entry.
UniProt Q9QYN8: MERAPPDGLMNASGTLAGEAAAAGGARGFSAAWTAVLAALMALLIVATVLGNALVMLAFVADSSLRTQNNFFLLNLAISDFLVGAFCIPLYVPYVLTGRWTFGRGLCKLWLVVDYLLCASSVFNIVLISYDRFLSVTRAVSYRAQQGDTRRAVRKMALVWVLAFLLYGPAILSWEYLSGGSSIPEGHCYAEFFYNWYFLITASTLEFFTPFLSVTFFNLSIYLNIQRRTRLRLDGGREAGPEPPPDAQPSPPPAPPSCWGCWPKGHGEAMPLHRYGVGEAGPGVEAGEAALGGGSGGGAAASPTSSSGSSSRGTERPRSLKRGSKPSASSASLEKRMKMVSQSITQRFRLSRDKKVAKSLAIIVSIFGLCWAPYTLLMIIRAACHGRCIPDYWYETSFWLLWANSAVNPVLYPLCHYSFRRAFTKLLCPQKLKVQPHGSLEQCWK

Target: Histamine H3 receptor (Rattus norvegicus, UniProt Q9QYN8)
Assay: Binding affinity at rat cortical Histamine H3 receptor

SMILES: CN[C@@H]1CCN(CCCOc2ccc(-c3ccc(C#N)cc3)cc2)C1
- Ki: 29.5 nM
